From PubChem BioAssay AID720707 (National Center for Advancing Translational Sciences (NCATS), 2013) come the findings set out here.

Protein sequences, listed by entry. Tags and fused reporters are not part of them.
UniProt O95398, whole entry: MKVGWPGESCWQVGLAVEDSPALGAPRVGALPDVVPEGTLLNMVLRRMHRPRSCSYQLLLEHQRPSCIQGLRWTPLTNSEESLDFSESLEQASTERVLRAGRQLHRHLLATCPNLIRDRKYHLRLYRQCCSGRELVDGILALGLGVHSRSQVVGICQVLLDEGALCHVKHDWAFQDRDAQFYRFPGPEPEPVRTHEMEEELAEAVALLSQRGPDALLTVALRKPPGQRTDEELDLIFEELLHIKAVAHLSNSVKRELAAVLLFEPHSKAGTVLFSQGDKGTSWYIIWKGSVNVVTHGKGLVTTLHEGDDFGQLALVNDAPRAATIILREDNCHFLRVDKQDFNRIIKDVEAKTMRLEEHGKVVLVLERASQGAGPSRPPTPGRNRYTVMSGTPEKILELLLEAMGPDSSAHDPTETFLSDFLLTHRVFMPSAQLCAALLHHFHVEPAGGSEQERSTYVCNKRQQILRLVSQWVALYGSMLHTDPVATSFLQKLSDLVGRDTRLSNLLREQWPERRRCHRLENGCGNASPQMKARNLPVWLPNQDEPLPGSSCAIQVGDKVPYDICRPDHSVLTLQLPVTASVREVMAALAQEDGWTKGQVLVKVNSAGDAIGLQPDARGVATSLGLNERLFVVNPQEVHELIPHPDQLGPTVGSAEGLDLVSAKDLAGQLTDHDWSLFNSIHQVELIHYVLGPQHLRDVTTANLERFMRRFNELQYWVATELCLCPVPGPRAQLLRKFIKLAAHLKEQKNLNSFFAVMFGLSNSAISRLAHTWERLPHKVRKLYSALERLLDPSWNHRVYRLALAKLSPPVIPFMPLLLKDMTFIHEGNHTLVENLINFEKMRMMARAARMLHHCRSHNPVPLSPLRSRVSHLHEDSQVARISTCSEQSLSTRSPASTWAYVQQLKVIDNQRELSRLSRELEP

The entries are a selection whose mix differs from that of the whole data set. Activity calls are given as the source filed them. Calls follow the shape of the dose curve; as a rule, active = well fitted activation curve with a large enough effect; inconclusive = small, poorly fitted or top-dose-only effect; inactive = no such curve, though single readings can be large or run the other way.

The assay concerns the target Rap guanine nucleotide exchange factor 3 (Homo sapiens) (UniProt O95398). Put plainly: qHTS for Agonist of cAMP-regulated guanine nucleotide exchange factor 3 (EPAC1): primary screen. Also: nearly all actives have a fitted effect of over 60% in size. As to conditions: biochemical assay, 100% = response to 6.5 mM cAMP; at 154 µM (top of the series). An excerpt:
In multi-cellular eukaryotic organisms, the effects of cAMP are transduced by two ubiquitously-expressed intracellular cAMP receptors, the classic protein kinase A/cAMP-dependent protein kinase (PKA/cAPK) and the more recently discovered exchange protein directly activated by cAMP/cAMP-regulated guanine nucleotide exchange factor (EPAC/cAMP-GEF). Both PKA and EPAC are ubiquitously expressed in all tissues, and an increase in intracellular cAMP levels will lead to the activation of both PKA and EPAC. Therefore, careful dissections of the individual role and relative contribution of EPAC and PKA within the overall cAMP signaling in various model systems are critical for further elucidating the mechanism of cAMP signaling. To date no EPAC-specific antagonists and agonist, as well as isoform-specific agonists have been reported, and developing EPAC-specific pharmacological probes to determine the physiological functions that EPAC play in the overall cAMP-mediated signaling remains a major challenge within the research field. Furthermore, identified regulators of EPAC may lead to new mechanism-based therapeutic strategies specifically targeting the EPAC / cAMP-signaling components as EPAC has been implicated to play important roles in major human pathological conditions such as diabetes, heart disease, and cancer.
This qHTS will be used to screen the Molecular Libraries Small Molecule Repository (MLSMR) as a concentration-titration series using the NCGC unique quantitative screening (qHTS) platform to find activators for EPAC1. In addition, this assay will also be used as a counterscreen for the EPAC2 qHTS. This fluorescent based assay is developed and validated for EPAC1 that measures exchange using EPAC effector Rap1 complex with BODIPY-GDP, a GDP analog with a tethered fluorophores. Activators are identified by monitoring the change in fluorescence signal as the exchanged free BODIPY-GDP has a reduced fluorescence compared to Rap1-bound BODIPY-GDP. Increase in signal (activation) is the desired outcome for the EPAC1 agonist while no activity in this assay is desired for the EPAC2 agonist counterscreen.
[1] de Rooij, J., Zwartkruis, F. J., Verheijen, M. H., Cool, R. H., Nijman, S. M., Wittinghofer, A., and Bos, J.L. (1998) Nature 396, 474-477
NIH Chemical Genomics Center [NCGC]
NIH Molecular Libraries Probe Centers Network [MLPCN]
Assay Submitter (PI): Xiaodong Cheng, The University of Texas Medical Branch
Briefly, three uL of reagents (100 nM EPAC1, 250 nM RAP1B-BODIPY-GDP, 50 uM GDP) were dispensed into a 1536-well Greiner black solid-bottom medium binding assay plate. Controls and test compounds (23 nL) were transferred to the plate via a Kalypsys pin tool equipped with a 1536-pin array. The plates were centrifuged at 1,000 rpm for 15 seconds followed by 5 minute incubation at room temperature. The assay plates were read at 5 minute intervals for 30 minutes in the ViewLux plate reader using 480nm excitation and 540nm emission filters. The results were normalized to the agonist positive control of 6.5 mM cAMP.
For `CC(C)c1ccc(OP(C)(=O)Nc2ccc(SC(F)(F)F)cc2)cc1` (configuration not stated), the activation was inactive: -32.3%.
For `CP(=O)(Nc1ccccc1F)Oc1ccccc1` (configuration not stated) the value was inactive: 4.27%; for `O=C(OCCN1CCN(CCOCc2ccccc2)CC1)C(O)(c1ccccc1)c1ccccc1`, inactive: 4.7%; for `COc1ccc(OP(C)(=O)Nc2ccc(SC(F)(F)F)cc2)cc1` (configuration not stated), inactive: -7.21%.
On to `CCOC(=O)c1ccc(NP(C)(=O)Oc2ccc(F)cc2)cc1` (configuration not stated), for which the activation was inactive: -1.91%.
For `CCCCCOc1ccc(NP(C)(=O)Oc2ccc(Cl)cc2Cl)cc1` (configuration not stated) the value was inactive: -2.71%.
For `CP(=O)(Nc1ccccc1)Oc1ccc(F)cc1` (configuration not stated) the value was inactive: -3.9%; for `CCN(CC)CCCOC(=O)C(O)(c1ccccc1)C1CCCCC1` (configuration not stated), inactive: -2.76%; for `Cc1c([N+](=O)[O-])cc([N+](=O)[O-])c(Br)c1[N+](=O)[O-]`, inactive: 1.01%.
For `COc1ccc(NP(C)(=O)Oc2ccccc2OC)cc1` (configuration not stated) the value was inactive: 3.01%; for `CN(C)CCOC(=O)C(O)(c1ccccc1)C1CCCCC1` (configuration not stated), inactive: -6.69%.
Regarding `COc1ccc(OP(C)(=O)Nc2cccc(Br)c2)cc1` (configuration not stated), the activation is inactive: 3.58%.
For `Cc1c(C(c2ccc3c(c2)OCO3)c2c(C)n(C)n(-c3ccccc3)c2=O)c(=O)n(-c2ccccc2)n1C.O=[N+]([O-])c1cc([N+](=O)[O-])c(O)c([N+](=O)[O-])c1` the value was inactive: -16.1%.
For `Cc1cc(-c2cccc3ccccc23)c(C)cn1.O=[N+]([O-])c1cc([N+](=O)[O-])c(O)c([N+](=O)[O-])c1` the value was inactive: -5.69%; for `O=[N+]([O-])c1ccc(OP2(=O)COCCO2)cc1` (configuration not stated), inactive: 2.46%.
Turning to `CCOP(C)(=S)SCC(=O)NC(C)(CC)C(=O)O` (configuration not stated), the activation was inactive: -6.38%.
For `CP(=O)(Nc1ccc(SC(F)(F)F)cc1)Oc1ccc(F)cc1` (configuration not stated) the value was inactive: -4.59%.
Turning to `O=[N+]([O-])c1cc([N+](=O)[O-])c(C(F)(F)F)c([N+](=O)[O-])c1O`, the activation was inactive: -10.1%.
On to `Cc1ccccc1NP(C)(=O)Nc1ccccc1C`, for which the activation is inactive: -0.566%.
For `CP(=O)(Nc1ccc2c(c1)OCCO2)Oc1ccccc1` (configuration not stated) the value was inactive: -2.81%; for `CP(=O)(Oc1ccccc1)N1CCOC1=O` (configuration not stated), inactive: 18.3%.
For `CCc1ccc(OP(C)(=O)Nc2cccnc2)cc1` (configuration not stated) the value was inactive: -3.4%; for `COc1ccccc1OP(C)(=O)Nc1c(C)n(C)n(-c2ccccc2)c1=O` (configuration not stated), inactive: 0.876%; for `O=C(OCCCN1CCCC1)C(O)(c1ccccc1)C1CCCCC1` (configuration not stated), inactive: 2%.
As for `CCN(CC)CC(O)COC(=O)C(O)(c1ccccc1)C1CCCCC1` (configuration not stated), the activation is inactive: -6.8%.
For `COc1ccc(OP(C)(=O)Nc2ccc(Br)cc2)cc1` (configuration not stated) the value was inactive: -19.5%.
`CN(C)C(=O)c1c([N+](=O)[O-])cc([N+](=O)[O-])cc1[N+](=O)[O-]`: the activation was inactive: -7.71%.
Regarding `CP(=O)(Nc1ccc(Cl)cc1)Oc1ccc(F)cc1` (configuration not stated), the activation is inactive: -4.06%.
For `COc1ccccc1OP(C)(=O)Nc1ccccc1Br` (configuration not stated) the value was inactive: -1.08%; for `CC(C)(C)c1ccc(OP(C)(=O)O)cc1`, inactive: -0.84%; for `CP(=O)(OC12CC3CC(CC(C3)C1)C2)OC12CC3CC(CC(C3)C1)C2`, inactive: 3.13%.
`CCOC(=O)c1ccc(NP(C)(=O)Oc2ccc(Cl)cc2)cc1` (configuration not stated): the activation is inactive: -5.49%.
As to `Nc1ccc2c(ccc3cccnc32)n1.O=[N+]([O-])c1cc([N+](=O)[O-])c(O)c([N+](=O)[O-])c1`, the activation was inactive: 8.2%.
For `COc1ccc(OP(C)(=O)Nc2ccccc2Br)cc1` (configuration not stated) the value was inactive: -13.2%.
Turning to `COc1ccccc1OP(C)(=O)Nc1ccc(C)c(C)c1` (configuration not stated), the activation was inactive: 2.66%.
`Cc1cc(C)cc(OP(C)(=O)Nc2cccc(C(F)(F)F)c2)c1` (configuration not stated): the activation is inactive: -6.34%.
Consider `CP(=O)(Nc1ccc(Cl)cc1Cl)Oc1ccccc1` (configuration not stated), for which the activation is inactive: -2.55%.
For `CCCCCCCCCCCCCCCC1C[N+](C)(C)CCOP(C)(=O)O1` (configuration not stated) the value was inactive: -5.93%.
For `CP(=O)(OCCOc1ccccc1)OCCOc1ccccc1` the value was inactive: 0.925%.
Regarding `CN(C)CCOC(=O)C(O)(c1ccccc1)C1CCCC1` (configuration not stated), the activation is inactive: 2.53%.
For `COc1ccc(OP(C)(=O)Nc2ccccn2)cc1` (configuration not stated) the value was inactive: 0.371%; for `COc1ccccc1OP(C)(=O)Nc1ccc(Br)cc1` (configuration not stated), inactive: -1.03%; for `CCc1ccc(OP(C)(=O)O)cc1`, inactive: -1.27%.
As for `CP(=O)(Nc1ccccn1)Oc1ccccc1` (configuration not stated), the activation is inactive: -2.53%.
Consider `COc1ccccc1OP(C)(=O)Nc1ccc(C)cc1C` (configuration not stated), for which the activation is inactive: 1.35%.
For `Cc1c(NP(C)(=O)Oc2ccc(C(C)C)cc2)c(=O)n(-c2ccccc2)n1C` (configuration not stated), the activation is inactive: 1.43%.
For `O=[N+]([O-])c1cc([N+](=O)[O-])c(Nc2ccccn2)c([N+](=O)[O-])c1` the value was inactive: -1.58%.
With `CCN(CC)CCCOC(=O)C(O)(c1ccccc1)c1ccccc1`, the activation was inactive: 8.57%.
In the case of `COc1ccccc1-c1ccccn1.O=[N+]([O-])c1cc([N+](=O)[O-])c(O)c([N+](=O)[O-])c1`, the activation is inactive: -3.06%.
For the compound `CC(C)(C)c1ccc(OP(C)(=O)Nc2ccc(SC(F)(F)F)cc2)cc1` (configuration not stated), the activation is inactive: -7.25%.
In the case of `Cc1cccc(C)c1OP(C)(N)=O` (configuration not stated), the activation was inactive: 8.75%.
For `O=[N+]([O-])c1ccc2c(c1)C=Nc1ccccc1O2` the value was inactive: -0.037%; for `O=[N+]([O-])c1cc([N+](=O)[O-])c(Nc2cccnc2)c([N+](=O)[O-])c1`, inactive: -11.4%.
For `COc1ccccc1OP(C)(=O)Nc1cc(Cl)ccc1C` (configuration not stated) the value was inactive: 3.46%; for `COc1ccc(OP(C)(=O)Nc2cccc(F)c2)cc1` (configuration not stated), inactive: -3.71%.
For `Cc1cc(C)cc(OP(C)(N)=O)c1` (configuration not stated) the value was inactive: -6.71%; for `CCOC(=O)c1ccc(NP(C)(=O)Oc2ccccc2)cc1` (configuration not stated), inactive: -0.348%.
In the case of `COc1ccccc1OP(C)(=O)Nc1ccc(C)cc1` (configuration not stated), the activation is inactive: 4.87%.
Turning to `Cc1ccc(NP(C)(=O)Oc2ccccc2)c(C)c1` (configuration not stated), the activation is inactive: 5.84%.
For `COc1ccccc1OP(C)(=O)Nc1ccccc1` (configuration not stated) the value was inactive: 14.6%; for `CP(=O)(Nc1ccccc1Br)Oc1ccccc1` (configuration not stated), inactive: -2.23%; for `CP(=S)(Nn1cnnc1)Oc1ccccc1` (configuration not stated), inactive: -0.491%.
